Assay results reported in publication PMC12186844 (ACS Chemical Neuroscience, 2025).

Protein sequences, listed by entry. Tags and fused reporters are not part of them.
UniProt P14416, whole entry: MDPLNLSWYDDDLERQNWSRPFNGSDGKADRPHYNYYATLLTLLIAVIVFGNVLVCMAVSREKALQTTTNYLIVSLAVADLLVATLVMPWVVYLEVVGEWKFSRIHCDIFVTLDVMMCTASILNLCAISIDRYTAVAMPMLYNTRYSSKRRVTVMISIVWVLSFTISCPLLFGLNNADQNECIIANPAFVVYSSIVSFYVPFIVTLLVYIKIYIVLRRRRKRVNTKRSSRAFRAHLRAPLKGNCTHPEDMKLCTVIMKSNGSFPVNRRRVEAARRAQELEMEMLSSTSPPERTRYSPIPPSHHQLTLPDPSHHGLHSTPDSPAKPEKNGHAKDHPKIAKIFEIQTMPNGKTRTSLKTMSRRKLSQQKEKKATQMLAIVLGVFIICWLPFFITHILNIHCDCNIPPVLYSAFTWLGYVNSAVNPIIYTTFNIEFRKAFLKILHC

Target: D2LR (Homo sapiens, UniProt P14416)
Test: [3H]rotigotine saturation binding, cell membranes
Conditions: tested as the radiolabelled form

SMILES: CCCN(CCc1cccs1)[C@H]1CCc2c(O)cccc2C1 [rotigotine]
- Bmax (+ 10 μM D2 PAM + 0.1 mM GppNHp): 1.45 ± 0.21 pmol/mg
- Bmax (+ 10 μM D2 PAM + 100 mM NaCl): 1.71 ± 0.27 pmol/mg
- Bmax (+ 10μM D2 PAM): 1.66 ± 0.23 pmol/mg
- Bmax (+ 0.1mM GppNHp): 1.37 ± 0.19 pmol/mg
- Bmax (Control): 1.00 ± 0.18 pmol/mg
